The list shows a part of the results, in another mix than the full data. Calls of active or inactive are those of the source.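 How the source made its calls: active means fluorescence ratio to DMSO below 75%, the collection mean minus 3 SD; inconclusive means too few cells collected in the well; inactive means the rest.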

The chains behind the UniProt entries cited, without tags or fusion partners.
UniProt Q9NP58, whole entry: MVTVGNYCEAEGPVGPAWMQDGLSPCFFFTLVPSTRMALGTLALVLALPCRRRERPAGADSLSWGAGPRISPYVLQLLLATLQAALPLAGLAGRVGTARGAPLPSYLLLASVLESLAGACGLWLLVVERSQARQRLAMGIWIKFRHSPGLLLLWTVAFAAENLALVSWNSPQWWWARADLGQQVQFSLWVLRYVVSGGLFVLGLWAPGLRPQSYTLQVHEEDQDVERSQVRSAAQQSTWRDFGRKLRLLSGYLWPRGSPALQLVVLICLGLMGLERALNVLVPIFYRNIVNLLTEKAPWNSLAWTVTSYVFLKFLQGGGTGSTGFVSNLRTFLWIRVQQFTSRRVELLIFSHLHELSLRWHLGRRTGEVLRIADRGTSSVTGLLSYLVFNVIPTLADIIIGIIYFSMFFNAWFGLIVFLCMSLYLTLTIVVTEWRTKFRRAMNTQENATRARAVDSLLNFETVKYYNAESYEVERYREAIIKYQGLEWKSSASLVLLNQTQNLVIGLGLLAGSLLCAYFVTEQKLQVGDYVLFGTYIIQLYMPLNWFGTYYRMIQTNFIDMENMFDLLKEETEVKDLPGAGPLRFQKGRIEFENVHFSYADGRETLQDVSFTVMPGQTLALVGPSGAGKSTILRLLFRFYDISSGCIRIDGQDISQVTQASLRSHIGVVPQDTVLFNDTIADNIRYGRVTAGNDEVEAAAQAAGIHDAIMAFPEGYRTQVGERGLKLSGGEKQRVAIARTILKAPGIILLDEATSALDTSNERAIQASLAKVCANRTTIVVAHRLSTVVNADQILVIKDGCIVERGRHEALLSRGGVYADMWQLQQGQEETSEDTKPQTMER

The experiment concerns the target ATP-binding cassette sub-family B member 6 (Homo sapiens) (UniProt Q9NP58). Kind of experiment: blockers of ABCB6-driven porphyrin uptake – K562-ABCB6 cells, flow cytometry, MLPCN library, primary screen (AID 602162).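 Further: signal is porphyrin accumulated inside mitochondria; 100% equals median channel fluorescence of DMSO control wells; lower ratio means ABCB6 inhibition with less porphyrin fluorescence.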 The following applies: K562-ABCB6 porphyrin accumulation, 1 h, at 10 µM, stronger effect = lower value.
Turning to `CCC(=O)N(c1ccccc1)C1(COC)CCN(CCn2nnn(CC)c2=O)CC1`, the fluorescence ratio to DMSO is inactive: 99%.
As to `CCC(=O)N(c1ccccc1)C1(COC)CCN(CCc2cccs2)CC1`, the fluorescence ratio to DMSO was inactive: 90%.

These data come from PubChem BioAssay AID602162 (NMMLSC, 2011).
